# Results published in PubChem BioAssay AID2380 (Sanford-Burnham Center for Chemical Genomics, 2010).
# Only a part is listed here, and it is no random draw. Some tests of the compounds listed are not included; inactive here does not mean inactive elsewhere. Activity calls are given as the source filed them.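 Rule for the calls: active = compounds whose signal lies at least 3.5 SD above the mean of all wells on their plate; inactive = the rest.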
# Assay: small molecules increasing insulinoma cell replication – ATP luminescence, uHTS, primary screen (AID 2380);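 note: 0% = DMSO-treated cells in low-serum medium and 100% = 10% serum control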
# Conditions: MIN6 cells proliferation, ATPlite luminescence, 48 h; at 10 µM; hits give high values; 100% = growth in 10% serum; cells starved in 0.2% serum
row,SMILES,proliferation
1,Cc1ccccc1C(=O)NCC1(N2CCCCC2)CCCCC1,inactive: -0.35%
2,CN(C)c1ccc(C(=O)NCC2(N(C)C)CCCCC2)cc1,inactive: -4.91%
3,CN(C)C1CCCC1OC(=O)C(O)(c1ccccc1)c1ccccc1 (centres undefined),inactive: 0.18%
4,CCN1CCCC(OC(=O)C2(O)c3ccccc3C=Cc3ccccc32)C1 (centres undefined),inactive: 0%
5,Cc1cc(C(=O)NCC2(N3CCCCC3)CCCCC2)ccc1[N+](=O)[O-],inactive: 0%
6,O=C(NCC1(N2CCCCC2)CCCCC1)c1cccc(Br)c1,inactive: -0.64%
7,COc1ccc(C(=O)NCC2(N(C)C)CCCCC2)cc1,inactive: -2.58%
8,C=CCN1CCN(CCOC(=O)C(O)(c2ccccc2)c2ccccc2)CC1,inactive: 0.92%
9,O=C(NCC1(N2CCCCC2)CCCCC1)c1cc(F)c(F)cc1Cl,inactive: -1.92%
10,CN1[C@@H]2CC[C@H]1CC(OC(=O)C(O)(c1ccccc1)c1ccccc1)C2 (some centres undefined),inactive: -3.4%
11,O=C(NCC1(N2CCCCC2)CCCCC1)c1cc([N+](=O)[O-])ccc1Cl,inactive: -2.81%
12,Cc1ccc(C(=O)NCC2(N3CCCCC3)CCCCC2)cc1,inactive: 6.55%
13,CC(C)N1C(=O)CC2(CCN(CCOC(=O)C(O)(c3ccccc3)c3ccccc3)CC2)C1=O,inactive: -2.07%
14,CCN(CC)CC(C)C(C)OC(=O)C(O)(c1ccccc1)c1ccccc1 (centres undefined),inactive: -1.5%
15,COc1cc(SC)ccc1C(=O)NCC1(N(C)C)CCCCC1,inactive: 0.35%
16,O=C(OC1CN2CCC1CC2)C(CO)(c1ccccc1)c1ccccc1 (centres undefined),inactive: -5.31%
17,CN(C)c1cccc(C(=O)NCC2(N(C)C)CCCCC2)c1,inactive: -1.68%
18,CC(C)Oc1ccc(C(=O)NCC2(N(C)C)CCCCC2)cc1,inactive: -3.19%
19,COc1ccc(Br)c(C(=O)NCC2(N3CCCCC3)CCCCC2)c1,inactive: -3.08%
20,COc1cc(C(=O)NCC2(N(C)C)CCCCC2)c([N+](=O)[O-])cc1OC,inactive: -2.29%
21,CN(C)C1(CNC(=O)c2ccc(Br)cc2)CCCCC1,inactive: -3.41%
22,O=C(NCC1(N2CCCCC2)CCCCC1)c1cccc(Cl)c1,inactive: -4.2%
23,COc1cccc(C(=O)NCC2(N3CCCCC3)CCCCC2)c1,inactive: -2.17%
24,COc1ccc(Cl)cc1C(=O)NCC1(N(C)C)CCCCC1,inactive: 4.33%
